This is a selection; strong and weak results do not stand in their true shares. Records with an inconclusive call do not appear. Activity calls are given as the source filed them. The call rests on the fitted dose curve; in most records, active means well fitted inhibition curve with a large enough effect; inconclusive means small, poorly fitted or top-dose-only effect, or effect the other way; inactive means flat fitted curve, though single readings scatter.
molecular target: Microtubule-associated protein tau (Homo sapiens) (UniProt P10636); assay: qHTS for Inhibitors of Tau Fibril Formation, Fluorescence Polarization; conditions: K18 P301L tau heparin fibrillization, Alexa594 FP, 6 h; series mostly up to 57.7 µM; activity, negative = inhibition: at the top concentration; further: nearly all actives have a fitted effect of over 55% in size
From the text: NIH Molecular Libraries Probe Production Network [MLPCN]
NIH Chemical Genomics Center [NCGC]
Assay Provider: Carlo Ballatore, University of Pennsylvania
The microtubule-associated protein tau is an abundant protein in the axons of neurons that stabilizes microtubules. With its ability to modulate microtubule dynamics, tau contributes directly or indirectly, to key structural and regulatory cellular functions. Particularly important is the influence tau exerts on axonal transport, which allows signaling molecules, trophic factors and other essential cellular constituents to travel along the axons. Under pathological conditions, tau becomes sequestered into insoluble aggregates called neurofibrillary tangles. This phenomenon is believed to have pathological consequences by promoting axonal transport deficits that ultimately lead to synaptic dysfunction and neuronal loss. To identify inhibitors of tau aggregation, a heparin-induced tau fibril formation assay was used that employed a recombinantly expressed fragment of tau, K18 (Q242-E372), bearing a P301L mutation (Gustke et al. 1994; Hong et al. 1998).
Gustke, N., B. Trinczek, et al. (1994). "Domains of tau protein and interactions with microtubules." Biochemistry 33(32): 9511-22.
Hong, M., V. Zhukareva, et al. (1998).
Li, W. and V. M. Lee (2006). "Characterization of two VQIXXK motifs for tau fibrillization in vitro." Biochemistry 45(51): 15692-701.
von Bergen, M., S. Barghorn, et al. (2001). "Mutations of tau protein in frontotemporal dementia promote aggregation of paired helical filaments by enhancing local beta-structure." J Biol Chem 276(51): 48165-74.
NCGC Assay Protocol Summary:
For screening, 2 uL/well human K18 P301L (15 uM unlabeled and 0.24 uM Alexa 594-labeled tau final concentrations) in reagent buffer (100 mM sodium acetate pH 7) was dispensed into black solid 1536-well plates (Grenier) using a solenoid-based dispenser. Following transfer of 23 nL compound or DMSO vehicle by a pin tool, 2 uL/well heparin (20 uM final concentration) in reagent buffer was added and the plate centrifuged 15 s at 1000 RPM. Plates were incubated 6 hr at 37 C and then 1 uL/well ThT (30 uM final concentration) was added. After a 1 hr ambient incubation, the plates were read by an Envision (Perkin Elmer) to monitor Alexa 594 FP (555 nm excitation and 632 nm emission).
Keywords: NIH Roadmap, MLPCN, MLI, MLSMR, NCGC, qHTS, tau, tauopathies, Alzheimer's disease, fibril, neurodegeneration, aggregation
On the % scale 0 is the no-effect control and ±100 the full control effect; potency means the concentration at half of the fitted maximal effect.

Protein sequences, listed by entry. Tags and fused reporters are not part of them.
UniProt P10636, whole entry, looked up: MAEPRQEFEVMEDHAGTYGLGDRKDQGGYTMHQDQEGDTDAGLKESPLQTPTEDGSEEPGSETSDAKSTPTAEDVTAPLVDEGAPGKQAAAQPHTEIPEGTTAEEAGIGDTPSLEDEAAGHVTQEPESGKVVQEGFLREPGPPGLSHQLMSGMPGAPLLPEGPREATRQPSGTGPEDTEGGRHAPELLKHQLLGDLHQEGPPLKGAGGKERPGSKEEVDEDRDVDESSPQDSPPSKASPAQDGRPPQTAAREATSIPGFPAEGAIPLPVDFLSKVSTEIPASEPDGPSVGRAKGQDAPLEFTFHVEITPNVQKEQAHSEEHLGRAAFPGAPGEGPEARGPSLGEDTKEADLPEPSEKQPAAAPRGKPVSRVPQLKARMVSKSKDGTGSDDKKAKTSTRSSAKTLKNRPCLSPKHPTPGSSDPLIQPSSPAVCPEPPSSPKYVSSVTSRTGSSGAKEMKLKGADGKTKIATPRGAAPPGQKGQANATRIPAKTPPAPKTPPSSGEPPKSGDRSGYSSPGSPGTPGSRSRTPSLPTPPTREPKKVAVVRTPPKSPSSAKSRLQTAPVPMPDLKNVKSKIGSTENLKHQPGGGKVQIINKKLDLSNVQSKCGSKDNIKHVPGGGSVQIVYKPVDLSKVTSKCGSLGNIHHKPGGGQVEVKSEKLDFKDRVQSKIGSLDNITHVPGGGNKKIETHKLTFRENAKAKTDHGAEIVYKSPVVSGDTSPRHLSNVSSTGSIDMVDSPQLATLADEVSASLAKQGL

SMILES	activity, negative = inhibition	Potency
CCC(=O)N1C2C3N(C(=O)CC)C1C1N(C(=O)CC)C(C(N1C(=O)CC)N3C(=O)CC)N2C(=O)CC	inactive: -6.78%	–
Cc1ccccc1OP(=O)(Nc1ccccn1)Oc1ccccc1C	inactive: 5.28%	–
CN(C)C(=O)Oc1noc2ccccc12	inactive: 1.77%	–
O=c1c2cc([N+](=O)[O-])ccc2[nH]c2c([N+](=O)[O-])cc([N+](=O)[O-])cc12	inactive: -9.19%	–
O=C(NC1CCS(=O)(=O)C1)NP(=S)(Oc1ccccc1)Oc1ccccc1 (stereo not given)	inactive: -2.77%	–
CCNC(=S)/N=C(\N)N[N+](=O)[O-]	inactive: -6.48%	–
c1ccc(-c2nn[nH]n2)c(-c2nn[nH]n2)c1	inactive: -3.3%	–
CCOC(=O)NC(Sc1ccccc1)C(Cl)(Cl)Cl (stereo not given)	inactive: 0.618%	–
Cc1ccc(NP(=O)(Oc2cccc(C)c2)Oc2cccc(C)c2)nc1	inactive: 5.43%	–
C[C@@H]1C=CCP(=O)(Oc2ccccc2)O1 (stereo not given in full)	inactive: 2%	–
C[C@H]1OP(=O)(Oc2ccccc2)C[C@@H]2O[C@@H]21 (stereo not given in full)	inactive: -1.61%	–
CC(=O)Nc1ccc([As](=O)(O)O)c(O)c1	inactive: 1.48%	–
CC(=O)Nc1ccc(Oc2c([N+](=O)[O-])cc([N+](=O)[O-])cc2[N+](=O)[O-])cc1	inactive: 3.21%	–
O=P1(Nc2nc3ccc(Cl)cc3s2)COc2ccccc2O1 (stereo not given)	inactive: 0.0519%	–
CCOc1ccc(C2=NCC(CBr)S2)cc1 (stereo not given)	inactive: -0.0446%	–
CC(C)(C)C(=O)NC(Sc1ccccc1)C(Cl)(Cl)Cl (stereo not given)	inactive: -14%	–
O=P(Nc1nccs1)(c1ccccc1)c1ccccc1	inactive: 1.68%	–
CC(C)C(=O)NC(Sc1ccccc1)C(Cl)(Cl)Cl (stereo not given)	inactive: 8.5%	–
c1nnnn1CCn1cnnn1	inactive: -5.5%	–
O=[N+]([O-])c1ncn(CCn2cnc([N+](=O)[O-])n2)n1	inactive: -1.06%	–
CC(=O)NC(SC(=S)N(C)C)C(Cl)(Cl)Cl (stereo not given)	inactive: -1.08%	–
O=[As](O)(c1ccccc1)c1ccc(O)cc1	inactive: 2.31%	–

SMILES	activity, negative = inhibition	Potency
Nc1ccc([As](=O)(O)c2ccc([N+](=O)[O-])cc2)cc1	inactive: 2.79%	–
C(Cc1nn[nH]n1)Cc1nn[nH]n1	inactive: 3.02%	–
O=C(OC1CN2CCC1CC2)c1cccc(Cl)c1 (stereo not given)	inactive: 0.562%	–
O=P(Nc1ccccn1)(c1ccc(Br)cc1)c1ccc(Br)cc1	inactive: -0.561%	–
O=P(Nc1nc2ccccc2s1)(c1ccccc1)c1ccccc1	inactive: -9.66%	–
C[C@H]1OP(=O)(Oc2ccccc2)[C@H](O)[C@H](O)[C@H]1N=[N+]=[N-] (stereo not given in full)	inactive: -1.66%	–
CN(C(=O)Cc1ccccc1)[C@H]1CC[C@@]2(CCCO2)C[C@@H]1N1CCCC1	inactive: -12.1%	–
CC(C)(C)C(=O)NC(Sc1ccncn1)C(Cl)(Cl)Cl (stereo not given)	inactive: 2.38%	–
O=[N+]([O-])c1ncn(CCn2ncnc2[N+](=O)[O-])n1	inactive: 11.2%	–
O=[N+]([O-])c1cccc(NC2=NCC(CBr)S2)c1 (stereo not given)	inactive: 1.32%	–
O=C(O)CNc1ccc([As](=O)(O)O)cc1	inactive: 6.91%	–
O=C(Nc1cc([As](=O)(O)O)ccc1O)c1ccccc1	inactive: 2.46%	–
Nc1ccc([As](=O)(O)c2ccc(N)cc2)cc1	inactive: 0.552%	–
C[N+]1=C2C=CC=CC=C2SC12C([N+](=O)[O-])=CC([N+](=O)[O-])=C[C-]2[N+](=O)[O-] (stereo not given)	inactive: -18.6%	–
CCN(/C(=N/P(=O)(N1CCOCC1)N1CCOCC1)N1CCOCC1)c1ccc(OC)cc1	inactive: -4.88%	–
CC(C)=N/N=C(\N)N[N+](=O)[O-]	inactive: 5.19%	–
CN(C)C(=O)OCCc1n(C)cc[n+]1C	inactive: -2.1%	–
CC1CCN(C(=O)Oc2c(Cl)cc(Cl)c3cccnc23)CC1	inactive: 5.29%	–
CC(=O)C1=CCCC2CCC1N2 (stereo not given)	–	inactive
CC(=O)N1C2C3N(C(C)=O)C1C1N(C(C)=O)C(C(N1C(C)=O)N3C(C)=O)N2C(C)=O	inactive: 5.4%	–
O=[N+]([O-])c1cccc2n[nH]nc12	inactive: -1.19%	–
Cc1ccc(NP(=O)(Oc2ccccc2)Oc2ccccc2)nc1	inactive: 9.23%	–

SMILES	activity, negative = inhibition	Potency
O=[N+]([O-])c1cc([N+](=O)[O-])c(CCNc2ccccc2)c([N+](=O)[O-])c1	inactive: -5.09%	–
CCc1nc2c(n1)c1c(non1O)c1c2no[n+]1[O-]	inactive: 5.74%	–
CC(C)CC(=O)NC(Sc1ccc(Cl)cc1)C(Cl)(Cl)Cl (stereo not given)	inactive: -3.87%	–
Nc1cc(N)c2nonc2c1[N+](=O)[O-]	inactive: -2.61%	–
Oc1ccccc1CNc1ccccn1	inactive: 2.03%	–
Cc1c2non([O-])c-2c(C)[n+](=O)[n+]1[O-]	–	active: 28.2 µM
O=C(NC(Sc1ccncn1)C(Cl)(Cl)Cl)c1ccccc1 (stereo not given)	inactive: -1.34%	–
NC(=O)c1cc([N+](=O)[O-])cc([N+](=O)[O-])c1N	inactive: 8.68%	–
Cc1ccc(N/C(=N/P(=O)(N2CCOCC2)N2CCOCC2)N2CCOCC2)cc1	inactive: 7.25%	–
COc1ccccc1OP(=O)(Nc1ccc(C)cn1)Oc1ccccc1OC	inactive: -0.445%	–
Cc1ccc(OP(=O)(Nc2nccs2)Oc2ccc(C)cc2)cc1	inactive: 2%	–
Clc1ccc(Cl)c(NC2=NCC(CBr)S2)c1 (stereo not given)	inactive: -1.93%	–
CN1CCCC(OC(=O)C(c2ccccc2)c2ccccc2)C1 (stereo not given)	inactive: 0.675%	–
CCN(N=Nc1nonc1N)c1nonc1N	inactive: -5.11%	–
Nc1cccc2ccc([As](=O)(O)O)cc12	inactive: -14.5%	–
CC(=O)Nc1ccc([As](=O)(O)O)cc1	inactive: -3.19%	–
O=P(Nc1nc2ccc(Cl)cc2s1)(c1ccccc1)c1ccccc1	inactive: -9.72%	–
CCOP(=O)(Nc1ccccc1)OCC	–	inactive
Cc1cc(SC(NC(=O)c2ccc(F)cc2)C(Cl)(Cl)Cl)ncn1 (stereo not given)	inactive: -5.02%	–
CN(C(=O)Cc1ccc(Cl)c(Cl)c1)[C@H]1CCCC[C@@H]1N1CCCC1	–	inactive
Cc1ccc(NP(=O)(Oc2ccccc2F)Oc2ccccc2F)nc1	inactive: -4.38%	–

— PubChem BioAssay AID1468 (National Center for Advancing Translational Sciences (NCATS), 2008)
